Reference: US20250320250A1, “PHARMACEUTICAL COMPOSITIONS FOR THE TREATMENT OF VISCERAL PAIN” (Ironwood Pharmaceuticals, Inc., priority 2021, published 2025)

Legend:
[1] = Solubility of the peptide at ambient temperature; assay type: physicochemical
Text: Briefly the peptide is a 13 amino acid peptide with a primary amino acid of Cys1-Cth2-Glu3-Leu4-Cys5-Cys6-Asn7-Val8-Ala9-Cys10-Tyr11-Gly12-Cys13 (SEQ ID NO: 1), wherein Cth is a cystathionine; wherein Cys1 and Cys6; and Cys5 and Cys13, are connected by disulfide bonds; wherein Cth2 and Cys10 are connected by a thioether bond; and wherein the peptide has an acetylated N-terminus, and an unmodified C-terminus (hereinafter referred to as “the peptide”).

[2] = Dissociation constants (pKa), pH-metric / UV-metric; assay type: physicochemical
[3] = Stability and drug solubility of the peptide at pH 7.0 (foam formulation development); assay type: physicochemical
Text: The following considerations were taken into account when developing the pharmaceutical rectal foam composition. […] From this, development work settled on the pH range of 6.5 to 7.5. To achieve this pH range for the bulk product; accordingly, a phosphate buffer system was chosen.

[4] = Absorption of the peptide (stated property)

CC(=O)N[C@H]1CSSC[C@@H]2NC(=O)[C@@H]3CSSC[C@@H](C(=O)O)NC(=O)CNC(=O)[C@H](Cc4ccc(O)cc4)NC(=O)[C@H](CSCC[C@H](NC1=O)C(=O)N[C@@H](CCC(=O)O)C(=O)N[C@@H](CC(C)C)C(=O)N3)NC(=O)[C@H](C)NC(=O)[C@H](C(C)C)NC(=O)[C@H](CC(N)=O)NC2=O [the peptide, Ac-Cys1-Cth2-Glu3-Leu4-Cys5-Cys6-Asn7-Val8-Ala9-Cys10-Tyr11-Gly12-Cys13-OH]
solubility ([1]; Acetonitrile): Insoluble
solubility ([1]; Dimethyl sulfoxide, read-out: Solubility): > 1000 µg/mL
solubility ([1]; Hydrochloric acid (0.01N), read-out: Solubility): > 1000 µg/mL
solubility ([1]; Methyl tert-butyl ether): Insoluble
solubility ([1]; Phosphate buffer (pH 7.0), read-out: Solubility): > 1000 µg/mL
solubility ([1]; Water, read-out: Solubility): > 1000 µg/mL
pKa ([2]; UV-metric, read-out: Dissociation constant pKa 3): 10.1
pKa ([2]; pH-metric, read-out: Dissociation constant pKa 1): 3.87
pKa ([2]; pH-metric, read-out: Dissociation constant pKa 2): 4.92
solubility [3]: > 26400 µg/mL
stability [3]: stable
absorption [4]: minimally absorbed

Like-named read-outs stand apart in the source and are kept apart here.
